This series is described as follows: Single Ascending Dose (SAD) study plasma PK in healthy volunteers. It counts as in vivo, human. Particulars: administration following consumption of food versus fasted. The protocol:
The 0.5, 2, 3, and 4 g doses were evaluated under fasted conditions (after an overnight fast) while the 1 g dose was evaluated under both fasted and fed conditions (within 30 minutes of consumption of a meal) in a crossover design. […] Blood samples for PK analysis were obtained at several time points after dose administration. Safety assessments included monitoring of adverse events and clinical laboratory testing including monitoring of kidney function.

Molecules are shown by their SMILES.

Take `[2H][C@@](N)(CO)C(=O)O` [Compound 100, (2R)-2-amino-2-deutero-3-hydroxy-propanoic acid]: the “food effect on rate of absorption” value is “delayed tmax and lower Cmax”.

The values above are taken from patent US20220313640A1 (Concert Pharmaceuticals, Inc., priority 2019, published 2022).
